{
  "source": "patent US20150038545A1",
  "about": "“HYDROXYPHENYL PYRROLE COMPOUNDS CONTAINING AN HYDROXAMIC ACID AS HDAC INHIBITORS AND MEDICINAL APPLICATIONS THEREOF” (UNIVERSIDAD DEL PAÍS VASCO, priority 2011, published 2015)",
  "origin": "cited, not measured here",
  "biological_target": "T1, HDAC6 (Homo sapiens, UniProt Q9UBN7)",
  "T1 sequence (Q9UBN7 1-1215)": "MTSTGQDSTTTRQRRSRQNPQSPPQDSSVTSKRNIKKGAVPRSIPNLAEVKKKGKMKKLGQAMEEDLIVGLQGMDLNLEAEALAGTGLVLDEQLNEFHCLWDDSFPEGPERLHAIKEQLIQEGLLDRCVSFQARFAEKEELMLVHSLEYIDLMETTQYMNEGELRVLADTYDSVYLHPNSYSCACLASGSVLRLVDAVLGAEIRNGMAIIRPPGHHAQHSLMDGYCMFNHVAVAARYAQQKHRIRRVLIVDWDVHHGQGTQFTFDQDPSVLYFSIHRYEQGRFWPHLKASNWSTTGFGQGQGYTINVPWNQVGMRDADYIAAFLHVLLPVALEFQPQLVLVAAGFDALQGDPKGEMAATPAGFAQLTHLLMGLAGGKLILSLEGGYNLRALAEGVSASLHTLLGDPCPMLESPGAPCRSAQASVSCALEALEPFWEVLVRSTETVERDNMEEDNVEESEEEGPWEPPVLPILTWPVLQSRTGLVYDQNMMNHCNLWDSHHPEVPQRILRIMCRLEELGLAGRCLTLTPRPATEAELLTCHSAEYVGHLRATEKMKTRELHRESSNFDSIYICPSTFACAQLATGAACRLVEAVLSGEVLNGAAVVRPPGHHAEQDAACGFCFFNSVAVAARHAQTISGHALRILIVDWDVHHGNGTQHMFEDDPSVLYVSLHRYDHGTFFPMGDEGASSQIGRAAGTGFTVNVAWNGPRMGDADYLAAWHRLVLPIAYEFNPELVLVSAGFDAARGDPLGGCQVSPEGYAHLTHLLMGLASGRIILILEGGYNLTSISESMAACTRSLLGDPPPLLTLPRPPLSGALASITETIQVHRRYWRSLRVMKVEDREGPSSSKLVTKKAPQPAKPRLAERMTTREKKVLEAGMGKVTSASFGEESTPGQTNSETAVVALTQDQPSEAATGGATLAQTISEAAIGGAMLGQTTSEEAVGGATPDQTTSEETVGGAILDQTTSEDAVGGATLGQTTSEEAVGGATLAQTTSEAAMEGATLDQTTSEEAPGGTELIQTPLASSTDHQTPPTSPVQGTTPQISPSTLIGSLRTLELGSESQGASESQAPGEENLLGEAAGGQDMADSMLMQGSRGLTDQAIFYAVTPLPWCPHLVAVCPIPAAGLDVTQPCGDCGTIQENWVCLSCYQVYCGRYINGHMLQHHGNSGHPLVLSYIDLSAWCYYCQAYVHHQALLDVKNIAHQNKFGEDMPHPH",
  "conditions": "cited from earlier work",
  "data": [
    {"smiles": "CN1CCc2c(c3ccccc3n2Cc2ccc(C(=O)NO)cc2)C1", "note": "[Tubastatin]", "values": [
      {"measurement": "selectivity over HDAC-1", "setting": "HDAC6 vs HDAC-1", "result": 1000, "unit": "fold"},
      {"measurement": "selectivity over HDAC-8", "setting": "HDAC6 vs HDAC-8", "result": 57, "unit": "fold"}
    ]}
  ]
}
